We go through 1 substance from patent publication US9795692B2, “Ocular detection of amyloid proteins” (SYSTEM OF SYSTEMS ANALYTICS, INC., priority 2011, dated 2017).

What all share (format): binding
For assay [1], the system named is amyloid aggregates in human eyes (optic nerve, ciliary retina, retina, drusen). Briefly: Staining of sectioned human donor eyes. Conditions: Alzheimer's Disease patients. An excerpt:
Human eyes from donors with and without Alzheimer's Disease were obtained from the Georgia Eye Bank. The eyes were sectioned and then stained with PEP-11 or BC750 (positive control), a small molecule dye used as a probe to detect Alzheimer's Disease.

Assay [2] concerns the target T1, non-Congophilic amyloid protein aggregates in human brain tissue (Homo sapiens, UniProt P05067).
T1 construct: from tissue; host or cells: human post-mortem brain tissue (neocortex, hippocampus, cerebral cortex)
Briefly: Staining of human hippocampal region and cerebral cortex compared with Congo Red. An excerpt: PEP-11 was used to stain human tissue from the hippocampal region and cerebral cortex of human brain tissue from patients with and without Alzheimer's Disease. The PEP-11 stain was compared with Congo Red staining of the same regions. FIG. 3 (Table 3) presents a subset of patients studied: (1) Patient 0001: person, with Alzheimer's Disease diagnosis, confirmed by post-mortem neuropathology indicating hippocampal pyramidal cell layer neurofibrillary tangles and plaques, entorhinal cortex containing extraneuronal tangles and many neurons containing neurofibrillary tangles; and (2) Patient 0002: person, without Alzheimer's Disease, confirmed by post-mortem neuropathology indicating subcortical white matter well myelinated, no Alzheimer's type II glia in neocortex and brain stem, no acute or chronic neuron loss in hippocampi, and no hippocampal sclerosis.

Assay [3] addresses T2, amyloid protein aggregate in human brain tissue (Homo sapiens, UniProt P05067).
T2 construct: from tissue; host or cells: human post-mortem brain tissue (neocortex, hippocampus, cerebral cortex)
Briefly: Staining of human brain tissue (Alzheimer's Disease vs age-matched control). How it is done:
PEP-11 was prepared and applied to Alzheimer's Disease brain tissue and age-matched non-Alzheimer's Disease human brain tissue, used as a control.

For assay [4], the system named is amyloid protein aggregates in brain tissue of transgenic mice with Alzheimer's Disease (Tg AD). Briefly: Staining of murine brain tissue with FITC-labeled probe. As to conditions: dentate gyms and midbrain. How it is done:
Probes for detecting amyloid protein aggregates in brain tissue of transgenic mice with Alzheimer's Disease (Tg AD) were prepared in accordance with the methods described herein. Specifically, PEP-11 (SEQ ID NO: 56 labeled with FITC) was prepared and applied to Tg AD brain tissue and age-matched non-TG murine brain tissue, used as a control.

Take “PEP-11: WT17-35 with FITC and d-Arginine at C-Terminal (CLVFFAEDVGSNKGAIIGLMC; FITC label, C-terminal D-arginine; /note=“Description of Artificial Sequence Synthetic probe”)”: the “relative staining in brain, posterior optic nerve and sensory retina” value in assay [1] is “greatest in the brain and surrounding amyloid plaques, with less staining in the posterior optic nerve and even less staining in the sensory retina”. Also, the “staining of extracellular and neuronal structures” value in assay [2] (Patient 0001 with Alzheimer's Disease) is “staining was seen”; in assay [2] (Patient 0002, without Alzheimer's Disease) it was “no staining”. Further, the “structures stained in the cerebral cortex” value in assay [2] (cerebral cortex of patients with Alzheimer's Disease) is listed as “stained non-Congophilic plaque-like structures in the vicinity of tangle neurons”. Moreover, the “staining of morphological structures within the brain parenchyma” value in assay [2] (human brain parenchyma) is reported as “Neither Congo Red nor PEP-11 stained any morphological structure”. Further, in assay [2] (human brain tissue, hippocampal region), the “structures stained in the hippocampal region” value is reported as “stained non-Congophilic plaque-like structures in the vicinity of the plaques”. In addition, in assay [2] (human brain tissue, relative to amyloid plaques stained by Congo Red), the overall staining appearance result was “diffuse staining surrounding amyloid plaque centers”. Besides, in assay [3] (human AD brain, neocortex and hippocampus), the “staining of Alzheimer's Disease brain tissue relative to control” value is reported as “significantly greater degree”. Moreover, the “staining of non-Alzheimer's Disease control brain tissue” value in assay [3] (human, age-matched control, neocortex or hippocampus) is “minimally stained”. For the same substance, the “staining of Tg AD brain tissue relative to non-Tg control” value in assay [4] was “significantly greater degree”.
